# Values quoted from earlier work as cited in patent publication US20100016365A1.
# Only a part of the results on these compounds is given; other tests are left out.
# Columns and labels:
# [1] = Goromaru et al. 1984
# [2] = considerable interpatient variability
SMILES,unchanged drug excreted in the urine [1],elimination half-life [2]
CCC(=O)N(c1ccccc1)C1CCN(CCc2ccccc2)CC1,< 10%,–
CCC(=O)N(c1ccccc1)C1(COC)CCN(CCc2cccs2)CC1,–,about 3 hours
CCC(=O)N(c1ccccc1)C1(COC)CCN(CCn2nnn(CC)c2=O)CC1,–,about 1.5 hours
